PubChem BioAssay AID624380 (The Scripps Research Institute Molecular Screening Center, 2012)
The list shows a part of the results, in another mix than the full data. Calls of active or inactive are those of the source.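 How the source made its calls: active means mean activation above the mean of DMSO-only wells plus 3 SD (cut at about 0.5% in these data); inactive means the rest.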

The chains behind the UniProt entries cited, without tags or fusion partners.
UniProt P35372, whole entry, looked up: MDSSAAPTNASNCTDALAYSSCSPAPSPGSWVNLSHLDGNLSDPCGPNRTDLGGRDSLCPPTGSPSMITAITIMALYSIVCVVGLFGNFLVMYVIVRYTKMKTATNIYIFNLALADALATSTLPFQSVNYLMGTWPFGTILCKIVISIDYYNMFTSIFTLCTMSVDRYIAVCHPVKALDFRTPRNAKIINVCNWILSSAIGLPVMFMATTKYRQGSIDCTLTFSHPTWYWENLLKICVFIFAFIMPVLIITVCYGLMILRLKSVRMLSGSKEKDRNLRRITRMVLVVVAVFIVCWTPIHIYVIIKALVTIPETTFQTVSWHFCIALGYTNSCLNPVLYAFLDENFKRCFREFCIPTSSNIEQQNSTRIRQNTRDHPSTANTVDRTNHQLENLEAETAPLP

These molecules were tested against Mu-type opioid receptor (Homo sapiens) (UniProt P35372) (assay: mu opioid receptor activation, arrestin complementation – cell-based, luminescence, single concentration, counter-screen for mouse HTR2A agonist project, confirmation (AID 624380)). Settings: U2OS OPRM1 beta-arrestin PathHunter, at 9.3 µM, stronger effect = higher value, DMSO 0%, DAMGO 9.3 µM 100%.
Summary of the method: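 Assay system – U2OS cells coexpressing OPRM1 and beta-arrestin with complementary beta-gal fragments · Amount – 1000 cells per well seeded a day ahead · Probe or stimulus – DAMGO reference agonist, 9.3 µM · Times – 3 h at 37 °C exposure, 1 h room-temperature detection · Detection – luminescence from restored beta-galactosidase · Read-out – percent activation scaled between DMSO-only and DAMGO-treated well medians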
OCCNc1ncnc2c1ncn2[C@H]1CN(Cc2ccncc2)C[C@@H](CO)O1 was tested, and the activation was inactive: -0.38%.
With COC(=O)[C@H](Cc1ccc(O)cc1)NC(=O)Cn1cnc2c(OCc3ccccc3)ncnc21 the activation was inactive: -0.55%.
For CN1CCN(c2ncnc3c2ncn3[C@H]2CN(Cc3ccncc3)C[C@@H](CO)O2)CC1, the activation was inactive: -0.52%.
For CCN(CC)CCn1c(NC(=O)c2ccc(Cl)cc2)nc2ccccc21, the activation was inactive: -0.01%.
In the case of C[C@H](O)[C@@H]1CN2CCc3c([nH]c4ccccc34)[C@@H]2C[C@@H]1N(C)C(=O)Nc1ccc(Br)cc1, the activation was inactive: -0.36%.
COc1ccc(N)c([N+](=O)[O-])c1[N+](=O)[O-] was tested, and the activation was inactive: -0.72%.
With C[C@@H](NC(=O)Cn1cnc2c(OCc3ccccc3)ncnc21)c1cccc2ccccc12 the activation was inactive: -0.5%.
In the case of O=c1[nH]c2ccccc2n1C1CCN(C(c2ccccc2OC(F)(F)F)c2nnnn2-c2ccc3c(c2)OCCO3)CC1 (centres undefined), the activation was inactive: 0%.
In the case of S=C=Nc1cccc(C2(N3CCCCC3)CCCCC2)c1, the activation was inactive: -0.51%.
